For 1 compound, IC50 results are on record in ChEMBL document CHEMBL1833876 (J Med Chem, 2011).

Each structure is given as a SMILES string.

The assay deals with R2. Description: Antiproliferative activity against chinese hamster R2 cells expressing human PCFT assessed as inhibition of colony formation after 10 to 14 days. It counts as functional, cell-based, Cricetulus griseus.

As for `Nc1nc2[nH]cc(CCc3ccc(C(=O)N[C@@H](CCC(=O)O)C(=O)O)cc3)c2c(=O)[nH]1` [PEMETREXED], the IC50 – broadly, the concentration that gives 50% inhibition – was determined as 4.94 nM.
